For this data set, the system named is CEM-SS cells.

What is called CC50 is the concentration giving 50% cytotoxicity. Lower therefore signals harm at low concentration.

Structures are written as SMILES.

For `CCC[C@@]1(CCc2ccccc2)CC(O)=C([C@H](CC)c2cccc(N(CCOCCOCCOCCOCCOCCOCCOC)S(=O)(=O)c3ccc(C(F)(F)F)cn3)c2)C(=O)O1`, the CC50 came out at 14.5 µM.

The values are drawn from patent US8598364B2, “Oligomer-protease inhibitor conjugates” (Nektar Therapeutics, priority 2007, dated 2013).
